For this assay, the system named is genotype 1b HCV-SGR. In kind it is cell-based, hepatitis C virus. The conditions noted are these: EC50 relative to wild type. As to the method: Candidate resistance-associated substitutions (RASs) were introduced into a wild-type genotype 1b HCV-SGR containing the luciferase reporter gene by means of site-directed mutagenesis (QuikChange II XL site-directed mutagenesis kit; Agilent Technologies, Santa Clara, CA, USA). Ninety-six hours after RNA transfection, the susceptibility of the RAS-containing HCV-SGR to compound 31 was determined by measurement of luciferase activity and comparison to wild-type HCV-SGR susceptibility. The replication capacity of the RAS-containing HCV-SGR was assessed by comparing luciferase activities at 4 h and 96 h posttransfection and expressed as a percentage of the wild-type replication capacity.

Take `C/C=C/C[C@@H](C)[C@@H](O)[C@H]1C(=O)N[C@@H](CC)C(=O)N(C)[C@H](C)C(=O)N(CC)[C@@H](C(C)C)C(=O)N[C@@H](C(C)C)C(=O)N(C)[C@@H](CC(C)C)C(=O)N[C@@H](C)C(=O)N[C@H](C)C(=O)N(C)[C@@H](CC(C)C)C(=O)N(C)[C@@H](CC(C)C)C(=O)N(C)[C@@H](C(C)C)C(=O)N1C` [ALV, Alisporivir, reference compound]: the “Fold change, WT” value came to 1.0.

(Values after publication PMC6021681, “Characterization of the Anti-Hepatitis C Virus Activity of New Nonpeptidic Small-Molecule Cyclophilin Inhibitors with the Potential for Broad Anti-Flaviviridae Activity” (Antimicrobial Agents and Chemotherapy, 2018).)
